Measured values taken from PubChem BioAssay AID540358 (NMMLSC, 2011).
The list shows a part of the results, in another mix than the full data. Active and inactive are the calls of the source.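 How the source made its calls: active means surface receptor percent response at or below 58%, roughly 3 SD from nonfluorescent compounds; inactive means the rest.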

target: Beta-2 adrenergic receptor (Homo sapiens) (UniProt P07550); assay: beta2AR agonists via receptor internalization, confirmation, cell-based, FAP fluorogen, flow cytometry, single point, cherry pick 1 (AID 540358); details: Am2.2-beta2AR cells, at 10 µM, active compounds read low

| SMILES | percent response (surface receptor) |
| --- | --- |
| CN(C)C(=O)c1cc([N+](=O)[O-])cc2c1-c1c(cc([N+](=O)[O-])cc1[N+](=O)[O-])C2=O | active: 19.9% |
